Measurements as given in US20150166988A1.

Target: human plasma kallikrein (activated with factor XIIa) (human) (UniProt P03952)
Test: cell-based or functional assay

concentration needed for the same suppression of factor XIIa and plasma kallikrein activation, against PK15: 30 fold
factor XIIa activity in kaolin-triggered human plasma (concentration that halves it): 5 µM
prolongation of the thrombin activation time in human plasma: 50 nM
Substance: aprotinin (from UniProt P00974 36-93)
